Measurements taken from ChEMBL document CHEMBL3856258, “Phosphonate-based irreversible inhibitors of human γ-glutamyl transpeptidase (GGT). GGsTop is a non-toxic and highly selective inhibitor with critical electrostatic interaction with an active-site residue Lys562 for enhanced inhibitory activity” (Bioorg Med Chem, 2016).

Assays:
[1] = test system: Salmonella typhimurium; test: Genotoxicity in Salmonella typhimurium TA100 assessed as number of revertant colonies per plate at 3 ug/plate after 20 mins in absence of S9 fraction by Ames test (reference value: 123); conditions: salmonella enterica subsp. enterica serovar typhimurium
[2] = test system: Salmonella typhimurium; test: Genotoxicity in Salmonella typhimurium TA1535 assessed as number of revertant colonies per plate at 5 ug/plate after 20 mins in absence of S9 fraction by Ames test (reference value: 15); conditions: salmonella enterica subsp. enterica serovar typhimurium
[3] = test system: Escherichia coli; test: Genotoxicity in Escherichia coli WP2uvrA assessed as number of revertant colonies per plate at 2 ug/plate after 20 mins in absence of S9 fraction by Ames test (reference value: 24); conditions: s9, 20 min

`CCN(N=O)C(=N)N[N+](=O)[O-]` showed an Activity [1] of 772, an Activity [2] of 996 and an Activity [3] of 954.
